Values of other authors as cited in patent publication US20160183526A1, “FUNGICIDAL COMPOSITIONS” (Dow AgroSciences LLC, priority 2014, published 2016).

Conditions: estimated from a survey of the literature; miscible means totally soluble in water in all amounts; cited from earlier work

Butylene carbonate
Solubility of Solvent in Water: 7000 µg/mL
